# Laboratory results: article PMC4485437 (Biochemistry, 2015)
# The chains behind the UniProt entries cited, without tags or fusion partners. Where a name states a change or a piece, a line headed by the entry shows the natural chain unless it says otherwise.
# UniProt Q9KPI8: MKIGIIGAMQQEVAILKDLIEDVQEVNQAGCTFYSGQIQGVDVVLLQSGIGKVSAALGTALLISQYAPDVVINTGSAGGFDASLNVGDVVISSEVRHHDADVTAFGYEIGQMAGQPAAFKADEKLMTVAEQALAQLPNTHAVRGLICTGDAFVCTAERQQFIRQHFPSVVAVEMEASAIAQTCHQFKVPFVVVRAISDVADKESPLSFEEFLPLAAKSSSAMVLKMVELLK
# Target: VcMTAN (WT) (Vibrio cholerae serotype O1, UniProt Q9KPI8)
# Format: biochemical
# Details: read-out: Ki,MTDIA; 0.8 mM MTA
compound,measurement,value
"CSC[C@H]1CN(Cc2c[nH]c3c(N)ncnc23)C[C@@H]1O [MTDIA, 4′-deaza-1′-aza-2′-deoxy-1′-(9-[^14C]methylene)-Immucillin-A]",Ki,2.7 ± 0.2 pM
